The values that follow come from PubChem BioAssay AID938 (National Center for Advancing Translational Sciences (NCATS), 2007).

Only a part is listed here, and it is no random draw. Results filed as inconclusive are left out. The source made the active and inactive calls. Calls come from the whole dose curve; as a rule, active = well fitted activation curve with a large enough effect; inconclusive = small, poorly fitted or top-dose-only effect; inactive = no such curve, though single readings can be large or run the other way.
Potency is the fitted concentration of half-maximal effect.

The nature of this test: qHTS Assay for Agonists of the Thyroid Stimulating Hormone Receptor: Activators of Intracellular cAMP Concentrations in Parental HEK 293. Note: nearly all actives have a fitted effect of over 55% in size. Conditions: parental HEK293 CNG cAMP sensor, membrane potential fluorescence. From the text: NIH Chemical Genomics Center [NCGC]
NIH Molecular Libraries Screening Centers Network [MLSCN]
PI Name: Dr. Marvin Gershengorn
This cell based assay utilized a cyclic nucleotide gated ion channel (CNG) as a biosensor for cAMP induction. HEK 293 cells stably expressing the modified CNG were purchased from BD biosciences (http://www.atto.com/products/actone/features_benefits.shtml) . Stimulation of cAMP production causes the CNG to open and subsequent membrane depolarization to occur. A fluorescent membrane potential dye (BD biosciences) was utilized to detect cAMP stimulation in cells.
The cells were maintained in DMEM medium (Invitrogen) containing 10 % FBS (Hyclone), 100 units/ml Penicillin, 100 ug/ml Streptomycin (Invitrogen), and 250 ug/ml Geneticin (Invitrogen) and 1 ug/ml Puromycin (Invitrogen) at 37C in 5% CO2. […]
High Throughput Screening. […] 23 nl/well compound or control was then added to the assay plates, which were incubated for additional 30 min before reading a Envision fluorescence plate reader (Perkin Elmer) in bottom-read mode for fluorescence intensity (emission at 590 nm).
Keywords: cAMP, CNG Ion Channel, quantitative high throughput screening, qHTS, HTS, probe identification, CNG, cAMP, cyclic nucleotide gated ion channel PubChem
On the technique in general: qHTS replaces the single test concentration by a dilution series.
On to `COc1ccc(C[C@H](C)NC[C@@H](O)c2ccc(O)c(NC=O)c2)cc1`, for which the Potency was active: 1.3 nM.
